The target in this test is T1, ME-2 (Comamonas testosteroni, UniProt B7X1D4).
T1 construct: gene CtesDRAFT_PD5092
T1 sequence (B7X1D4 2-769): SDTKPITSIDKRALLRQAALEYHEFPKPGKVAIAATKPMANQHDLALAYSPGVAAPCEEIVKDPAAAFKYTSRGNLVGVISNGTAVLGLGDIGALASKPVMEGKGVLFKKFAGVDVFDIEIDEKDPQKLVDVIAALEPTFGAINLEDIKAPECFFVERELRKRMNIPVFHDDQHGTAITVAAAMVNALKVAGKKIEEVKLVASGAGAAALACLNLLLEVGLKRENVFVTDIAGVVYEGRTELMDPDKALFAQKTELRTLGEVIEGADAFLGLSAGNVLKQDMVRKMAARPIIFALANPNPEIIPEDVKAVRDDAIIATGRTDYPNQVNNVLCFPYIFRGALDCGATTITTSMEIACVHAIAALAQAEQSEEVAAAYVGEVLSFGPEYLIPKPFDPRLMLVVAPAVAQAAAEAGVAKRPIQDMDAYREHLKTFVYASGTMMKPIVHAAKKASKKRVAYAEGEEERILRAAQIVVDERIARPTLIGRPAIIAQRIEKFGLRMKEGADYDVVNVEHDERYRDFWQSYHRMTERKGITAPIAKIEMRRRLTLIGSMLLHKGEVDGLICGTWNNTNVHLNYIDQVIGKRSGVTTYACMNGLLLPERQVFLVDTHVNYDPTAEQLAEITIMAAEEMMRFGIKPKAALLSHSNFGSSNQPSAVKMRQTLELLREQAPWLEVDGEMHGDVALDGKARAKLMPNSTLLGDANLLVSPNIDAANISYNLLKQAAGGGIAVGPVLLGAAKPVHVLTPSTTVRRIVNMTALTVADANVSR
As to conditions: 20 mM L-malate, 5 mM MnCl2, pH 7.5, 30 °C.

These results are taken from publication PMC10154247, “Complex regulation in a Comamonas platform for diverse aromatic carbon metabolism” (Nature Chemical Biology, 2023).

For `NC(=O)c1ccc[n+]([C@@H]2O[C@H](COP(=O)(O)OP(=O)(O)OC[C@H]3O[C@@H](n4cnc5c(N)ncnc54)[C@H](O)[C@@H]3O)[C@@H](O)[C@H]2O)c1` [NAD^+], the “NAD(P)H formation at 340 nm” value is “NADH was the preferred cofactor for ME-2 and Mdh”.
